Test results taken from publication PMC13213242, “A novel ψ–χ fusion protein for unravelling the contributions of χ to DNA replication and repair” (Nucleic Acids Research, 2026).

Biological target: T1, single-stranded DNA-binding protein (SSB), two-hybrid fusion (E. coli, UniProt P0AGE0 1-178)
T1 sequence (looked up): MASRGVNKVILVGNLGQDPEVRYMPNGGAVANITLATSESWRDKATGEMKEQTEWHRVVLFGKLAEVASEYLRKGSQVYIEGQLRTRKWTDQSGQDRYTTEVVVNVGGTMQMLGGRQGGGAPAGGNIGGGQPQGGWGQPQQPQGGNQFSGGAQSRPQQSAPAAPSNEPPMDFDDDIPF
Assay: cell-based or functional assay

B1: WT γ complex clamp loader (γ3δδ′ψχ) (complex, E. coli)
chain 1: MSYQVLARKWRPQTFADVVGQEHVLTALANGLSLGRIHHAYLFSGTRGVGKTSIARLLAKGLNCETGITATPCGVCDNCREIEQGRFVDLIEIDAASRTKVEDTRDLLDNVQYAPARGRFKVYLIDEVHMLSRHSFNALLKTLEEPPEHVKFLLATTDPQKLPVTILSRCLQFHLKALDVEQIRHQLEHILNEEHIAHEPRALQLLARAAEGSLRDALSLTDQAIASGDGQVSTQAVSAMLGTLDDDQALSLVEAMVEANGERVMALINEAAARGIEWEALLVEMLGLLHRIAMVQLSPAALGNDMAAIELRMRELARTIPPTDIQLYYQTLLIGRKELPYAPDRRMGVEMTLLRALAFHPRMPLPEPEVPRQSFAPVAPTAVMTPTQVPPQPQSAPQQAPTVPLPETTSQVLAARQQLQRVQGATKAKKE
chain 2: MIRLYPEQLRAQLNEGLRAAYLLLGNDPLLLQESQDAVRQVAAAQGFEEHHTFSIDPNTDWNAIFSLCQAMSLFASRQTLLLLLPENGPNAAINEQLLTLTGLLHDDLLLIVRGNKLSKAQENAAWFTALANRSVQVTCQTPEQAQLPRWVAARAKQLNLELDDAANQVLCYCYEGNLLALAQALERLSLLWPDGKLTLPRVEQAVNDAAHFTPFHWVDALLMGKSKRALHILQQLRLEGSEPVILLRTLQRELLLLVNLKRQSAHTPLRALFDKHRVWQNRRGMMGEALNRLSQTQLRQAVQLLTRTELTLKQDYGQSVWAELEGLSLLLCHKPLADVFIDG
chain 3: MRWYPWLRPDFEKLVASYQAGRGHHALLIQALPGMGDDALIYALSRYLLCQQPQGHKSCGHCRGCQLMQAGTHPDYYTLAPEKGKNTLGVDAVREVTEKLNEHARLGGAKVVWVTDAALLTDAAANALLKTLEEPPAETWFFLATREPERLLATLRSRCRLHYLAPPPEQYAVTWLSREVTMSQDALLAALRLSAGSPGAALALFQGDNWQARETLCQALAYSVPSGDWYSLLAALNHEQAPARLHWLATLLMDALKRHHGAAQVTNVDVPGLVAELANHLSPSRLQAILGDVCHIREQLMSVTGINRELLITDLLLRIEHYLQPGVVLPVPHL
chain 4: MTSRRDWQLQQLGITQWSLRRPGALQGEIAIAIPAHVRLVMVANDLPALTDPLVSDVLRALTVSPDQVLQLTPEKIAMLPQGSHCNSWRLGTDEPLSLEGAQVASPALTDLRANPTARAALWQQICTYEHDFFPRND
chain 5: MKNATFYLLDNDTTVDGLSAVEQLVCEIAAERWRSGKRVLIACEDEKQAYRLDEALWARPAESFVPHNLAGEGPRGGAPVEIAWPQKRSSSRRDILISLRTSFADFATAFTEVVDFVPYEDSLKQLARERYKAYRVAGFNLNTATWK
Question: B1 was tested. Which “rate of β-clamp closing on DNA-SSB (stopped-flow, β-AF488_(2) fluorescence): γ complex lacking χ (Δχ) against WT γ complex” value did it give?
Answer: ~5 fold
